Source: article PMC7703681 (Journal of medicinal chemistry, 2020)

By UniProt entry, the sequences of proteins in these tests, tags left out. Where a name states a change or a piece, a line headed by the entry shows the natural chain unless it says otherwise.
UniProt P10275: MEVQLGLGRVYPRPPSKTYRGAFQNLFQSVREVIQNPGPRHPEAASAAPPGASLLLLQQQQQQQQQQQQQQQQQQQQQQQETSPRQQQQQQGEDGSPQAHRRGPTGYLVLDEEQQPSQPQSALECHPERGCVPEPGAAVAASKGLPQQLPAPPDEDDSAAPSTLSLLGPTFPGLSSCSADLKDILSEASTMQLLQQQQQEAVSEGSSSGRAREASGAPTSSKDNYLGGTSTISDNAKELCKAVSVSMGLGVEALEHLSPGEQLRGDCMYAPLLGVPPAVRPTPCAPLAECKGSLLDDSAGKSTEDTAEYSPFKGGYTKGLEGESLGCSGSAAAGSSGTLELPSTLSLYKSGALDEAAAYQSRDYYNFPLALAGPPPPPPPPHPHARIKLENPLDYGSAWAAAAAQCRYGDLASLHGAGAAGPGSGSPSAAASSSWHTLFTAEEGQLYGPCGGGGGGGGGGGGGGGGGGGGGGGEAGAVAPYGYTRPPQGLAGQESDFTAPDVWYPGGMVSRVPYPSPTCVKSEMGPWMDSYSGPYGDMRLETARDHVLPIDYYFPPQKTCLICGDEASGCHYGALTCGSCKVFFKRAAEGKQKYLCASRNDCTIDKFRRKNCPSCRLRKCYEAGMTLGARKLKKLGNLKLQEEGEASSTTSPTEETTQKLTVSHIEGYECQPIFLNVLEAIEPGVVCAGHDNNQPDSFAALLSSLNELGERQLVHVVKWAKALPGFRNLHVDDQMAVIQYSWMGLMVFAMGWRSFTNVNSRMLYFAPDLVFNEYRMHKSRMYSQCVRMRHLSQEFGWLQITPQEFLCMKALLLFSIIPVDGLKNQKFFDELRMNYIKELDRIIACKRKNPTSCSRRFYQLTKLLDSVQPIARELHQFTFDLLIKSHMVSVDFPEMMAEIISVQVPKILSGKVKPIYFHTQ

Molecular target: full-length wtAR (Homo sapiens, UniProt P10275)

## C[C@](O)(CNC(=O)c1cn[nH]c1)C(=O)Nc1ccc(C#N)c(C(F)(F)F)c1 [29f, (S)-N-(3-((4-Cyano-3-(trifluoromethyl)phenyl)amino)-2-hydroxy-2-methyl-3-oxopropyl)-1H-pyrazole-4-carboxamide]
  transactivation IC50: agonist
